Experimental data reported in patent US20230144824A1, “1H-PYRAZOLO[4,3-d]PYRIMIDINE COMPOUNDS AS TOLL-LIKE RECEPTOR 7 (TLR7) AGONISTS” (BRISTOL-MYERS SQUIBB COMPANY, priority 2020, published 2023).

Chains of the proteins cited; added tags and fusions are not shown. Residues count along the entry.
UniProt Q9NYK1, 27-1049 limits assumed: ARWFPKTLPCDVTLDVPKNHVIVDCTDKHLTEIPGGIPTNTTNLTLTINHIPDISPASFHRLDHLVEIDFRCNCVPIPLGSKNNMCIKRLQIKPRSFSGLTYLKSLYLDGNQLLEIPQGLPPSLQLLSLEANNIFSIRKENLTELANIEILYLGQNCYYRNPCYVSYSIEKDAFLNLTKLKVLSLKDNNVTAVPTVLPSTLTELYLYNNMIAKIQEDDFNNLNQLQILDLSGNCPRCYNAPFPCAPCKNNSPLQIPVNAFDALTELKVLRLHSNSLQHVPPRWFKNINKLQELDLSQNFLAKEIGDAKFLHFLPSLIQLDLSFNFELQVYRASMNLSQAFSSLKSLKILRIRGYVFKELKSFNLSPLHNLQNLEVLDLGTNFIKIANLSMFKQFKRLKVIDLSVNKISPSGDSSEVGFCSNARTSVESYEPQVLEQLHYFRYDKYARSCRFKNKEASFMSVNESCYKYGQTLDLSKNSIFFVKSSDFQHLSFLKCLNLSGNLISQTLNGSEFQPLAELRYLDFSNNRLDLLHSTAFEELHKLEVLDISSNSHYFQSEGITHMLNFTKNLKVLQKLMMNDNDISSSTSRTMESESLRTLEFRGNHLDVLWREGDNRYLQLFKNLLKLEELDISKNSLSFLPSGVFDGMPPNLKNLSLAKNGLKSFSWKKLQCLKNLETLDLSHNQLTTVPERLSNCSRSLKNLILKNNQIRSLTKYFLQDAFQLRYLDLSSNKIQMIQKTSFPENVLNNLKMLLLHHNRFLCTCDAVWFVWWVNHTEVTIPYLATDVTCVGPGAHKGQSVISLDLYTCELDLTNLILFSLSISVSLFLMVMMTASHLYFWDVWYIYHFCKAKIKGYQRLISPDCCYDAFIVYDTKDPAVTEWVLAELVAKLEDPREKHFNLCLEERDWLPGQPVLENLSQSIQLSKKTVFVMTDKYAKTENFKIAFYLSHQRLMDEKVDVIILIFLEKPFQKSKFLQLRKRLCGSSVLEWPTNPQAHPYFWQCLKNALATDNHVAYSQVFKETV

Target: human TLR7 (Homo sapiens, UniProt Q9NYK1)
Test: Human TLR7 agonist activity assay (HEK-Blue TLR7 SEAP reporter)
Details: read-out: hTLR7 Agonism EC50, HEK-Blue TLR7 cells, 18 h treatment, average where assay performed multiple times
Protocol: This procedure describes a method for assaying human TLR7 (hTLR7) agonist activity of the compounds disclosed in this specification.
HEK-Blue™ TLR7 cells were added to each well of a 384-well tissue-culture plate (15,000 cells per well) and incubated 16-18 h at 37° C., 5% CO2. Compounds (100 nl) were dispensed into wells containing the HEK-Blue™ TLR cells and the treated cells were incubated at 37° C., 5% CO2. After 18 h treatment ten microliters of freshly-prepared Quanti-Blue™ reagent (Invivogen) was added to each well, incubated for 30 min (37° C., 5% CO2) and SEAP levels measured using an Envision plate reader (OD=620 nm). The half maximal effective concentration values (EC50; compound concentration which induced a response halfway between the assay baseline and maximum) were calculated.

CCC[C@@H](CCO)Nc1nc(N)nc2cnn(Cc3ncc(C4CCN(Cc5nc(C)no5)CC4)cc3OC)c12 was tested, and the EC50 was 28.1 nM.
